Yeast mating assay B: variants of the scFv Ab-14

All variants were tested on one target, the spike HR2 peptide PDVDLGDISGINAS (SARS-CoV-2).

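Phage display of a naive human antibody library on the peptide gave the parent. The variants were designed computationally from a first round of random CDR variants and then made and measured. Their group label is 14H_GP_Gen (GP: Gaussian process model; Gen: genetic algorithm; a sequence that several methods proposed may carry one label only). The assay is AlphaSeq: two haploid yeast populations carry antibody and antigen on their surface. After mating in shaken culture at 30 °C for 16 h, diploids were selected and their barcode pairs sequenced. Each replicate has its own calibration line, from reference interactions of the BCL2 family. There are six technical replicates.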

Each scFv is VH, the linker GGGGSGGGGSGGGGS, VL, as in the parent Ab-14, and differs from it in the CDRs of the heavy chain only.
VH: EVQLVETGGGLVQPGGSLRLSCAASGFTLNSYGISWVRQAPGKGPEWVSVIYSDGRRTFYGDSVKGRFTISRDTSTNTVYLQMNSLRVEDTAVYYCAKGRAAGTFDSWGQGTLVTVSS
VL: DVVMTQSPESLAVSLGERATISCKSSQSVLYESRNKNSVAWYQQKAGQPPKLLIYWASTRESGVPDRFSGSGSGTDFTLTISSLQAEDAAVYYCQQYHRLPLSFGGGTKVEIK

Substitutions are numbered in sequence along the VH above, starting at 1 (not Kabat). Scale: log10 of Kd in nM, estimated from mating counts; low values are strong binders. The mean shown is taken over the replicates in which the pair was detected. "nd" means that the variant was in the library but no mating with the target was seen in that replicate; the authors take this as a sign of poor binding, and no number exists. Values of this round are not directly comparable with the first-round values of the same sequences. Three control strains display no target. For all heavy chain designs, 1% of the pairings with them gave a signal, with a median of 2.08 and one signal in twenty below 0.84, so weak values seen in few replicates may be background. Also given: how often the same scFv was detected with the empty control strains, with their mean in brackets. The authors' rule: three or more of the six replicates give a measured affinity, fewer mean a poor binder. The parent sequence was in this pool as ten entries: three were never detected, three once, and four in most replicates, with averages from 0.34 to 2.37.

changes | log10 Kd, replicates | mean, log10 nM | signal with controls
T28S/S63R/R100Q/S107L | 0.95 0.80 1.17 1.40 1.38 1.22 | 1.15 | 0/18
T28G/S31E/G61H/A101V | 0.47 0.09 0.08 0.23 0.29 0.22 | 0.23 | 0/18
T28S/S31E/S63Q/R100Q | 0.65 0.46 0.26 0.28 0.15 0.68 | 0.41 | 1/18 (2.46)
T28S/S31N/S63Q/R100Q/A101T | 1.59 1.21 0.63 0.90 1.21 1.26 | 1.13 | 1/18 (2.56)
T28Q/R100K/A101T | nd 0.79 0.87 1.67 0.82 0.79 | 0.99 | 0/18
T28D/G61S/S63Q/R100Q | -0.19 -0.09 -0.07 -0.14 0.14 0.42 | 0.01 | 0/18
R56K/R100K/A101E/S107T | 0.79 1.06 0.13 0.10 0.80 0.06 | 0.49 | 0/18
T28A/S31E/G61S/R100K | 1.14 1.71 0.59 -0.33 0.11 -0.13 | 0.51 | 0/18
N30E/R100K/A101I | 0.89 0.62 0.93 1.06 0.60 0.74 | 0.81 | 1/18 (0.83)
T28D/R100E/A101E | 1.11 -0.12 -0.28 -0.11 0.22 0.15 | 0.16 | 0/18
T28D/S63Q/R100I/A101T | 0.34 -0.05 -0.14 -0.38 0.06 0.11 | -0.01 | 0/18
T28N/A101Q/S107A | 0.90 0.97 0.67 0.45 0.45 0.99 | 0.74 | 0/18
T28E/S31D/A101T/S107K | 0.18 0.44 0.31 0.31 0.21 0.33 | 0.29 | 0/18
T28E/G61I/R100K/S107K | 1.19 0.65 1.36 nd 1.37 nd | 1.14 | 0/18
T28D/R56K/A101Q/S107T | 0.29 0.19 0.10 0.18 -0.37 0.91 | 0.22 | 0/18
T28S/R100N/A101Q | 0.43 0.20 0.39 0.29 0.38 0.34 | 0.34 | 0/18
T28D/S31E/R100Q/A101T | -0.73 -0.57 0.68 nd -0.80 -0.58 | -0.40 | 0/18
G26Y/T28D/A101Q | nd nd nd 2.26 nd nd | 2.26 | 0/18
T28E/S63R/R100K/A101T | nd nd nd 2.04 nd nd | 2.04 | 1/18 (1.89)
T28S/G61K/A101L | nd -0.08 0.31 nd 1.26 0.45 | 0.48 | 0/18
T28Q/S31E/R100K/A101T/S107T | 0.26 0.45 0.30 0.41 -0.06 0.69 | 0.34 | 0/18
T28N/G61A/S63Q/R100Q/A101T | 0.30 0.42 0.19 0.31 0.31 0.11 | 0.27 | 0/18
T28D/G61A/S63Q/R100N | 0.63 1.40 0.52 0.19 0.37 0.86 | 0.66 | 0/18
T28D/S31E/R100S | -0.17 -0.12 -0.18 -0.50 -0.50 -0.28 | -0.29 | 0/18
T28D/R56K/G61A/R100N | 0.99 0.34 0.23 0.29 0.09 0.32 | 0.37 | 1/18 (0.90)
T28E/S31K/A101T | 0.76 0.70 0.34 0.40 0.34 0.50 | 0.51 | 0/18
G26K/T28D/R100Q/A101T | 1.25 nd nd nd nd nd | 1.25 | 0/18
T28D/S63A/A101T/S107A | -0.17 -0.20 -0.20 -0.06 -0.51 -0.19 | -0.22 | 0/18
T28D/S63A/R100K/A101T | -0.89 -0.72 -0.69 -0.35 -0.49 -0.04 | -0.53 | 0/18
T28D/S63G/A101E | 0.21 -0.12 0.13 -0.04 -0.09 -0.10 | 0.00 | 0/18
S31E/R56K/A101H | 0.90 0.92 0.33 0.32 1.11 0.95 | 0.76 | 0/18
G61I/S63D/R100E | 1.88 0.79 0.67 0.37 0.67 1.52 | 0.98 | 0/18
N30D/S53A/S107K | 0.37 0.24 0.04 0.38 0.20 0.28 | 0.25 | 0/18
T28D/G61Q/S63D/R100Q | nd nd nd nd nd nd | nd | 0/18
T28E/S31E/S63Q/R100K/A101T | -0.20 0.04 -0.23 -0.52 1.09 -0.17 | 0.00 | 0/18
T28E/G61T/R100Q/A101E | -0.03 -0.07 0.12 -0.05 0.00 -0.10 | -0.02 | 1/18 (1.11)
T28D/S31A/R100Q | 0.10 0.55 0.34 0.50 0.25 0.77 | 0.42 | 0/18
T28S/G61V/A101T/S107A | nd nd nd nd nd 2.55 | 2.55 | 0/18
N30K/S53A/S107T | 0.89 0.43 0.46 0.82 0.63 0.68 | 0.65 | 1/18 (1.76)
T28D/A101I/S107V | nd nd nd nd nd nd | nd | 0/18
T28E/G61I/R100N/A101V | -0.02 0.94 -0.15 1.26 -0.41 0.15 | 0.30 | 0/18
G61A/S63D/R100Q/S107L | 0.14 0.52 0.60 0.35 0.62 1.95 | 0.70 | 0/18
T28S/R100W/S107N | nd nd nd nd nd nd | nd | 0/18
T28N/G61V/S63D/R100Q | nd 0.65 nd 1.15 0.86 1.07 | 0.93 | 0/18
T28W/S31E/G61H/A101T | 1.47 0.47 0.55 0.74 0.45 0.83 | 0.75 | 0/18
G26P/T28D/A101Q | 1.45 2.11 0.92 0.81 1.01 1.75 | 1.34 | 0/18
T28D/R56Q/A101Q | 0.40 0.84 0.22 -0.15 0.18 0.31 | 0.30 | 0/18
T28D/G61V/A101W | 1.16 1.35 1.28 1.39 1.48 1.35 | 1.33 | 1/18 (2.09)
T28D/S31T/R100K/A101T | 1.65 0.76 0.46 0.62 0.32 1.17 | 0.83 | 2/18 (2.90)
T28Q/S31E/A101T/S107T | 0.33 -0.22 0.26 -0.48 -0.09 -0.21 | -0.07 | 0/18
T28E/S53A/S63N/R100K | 0.39 -0.03 -0.41 -0.50 -0.16 -0.10 | -0.13 | 0/18

From the AlphaSeq antibody data of Li et al. 2023 (doi:10.1038/s41467-023-39022-2), copy in the FLAb collection.